The target of this assay is novel mammalian opioid receptor (LC132, OFQR) (Rattus norvegicus, UniProt P35370). The conditions noted are these: membranes of transient (COS-7) and stable (Ltk^−) transfectants, 120 min at 22° C.

Sequences of proteins named here, by UniProt entry; tags and fusion partners are left off. A change or cut given only in a name is not applied to a line headed by its entry.
UniProt P35370: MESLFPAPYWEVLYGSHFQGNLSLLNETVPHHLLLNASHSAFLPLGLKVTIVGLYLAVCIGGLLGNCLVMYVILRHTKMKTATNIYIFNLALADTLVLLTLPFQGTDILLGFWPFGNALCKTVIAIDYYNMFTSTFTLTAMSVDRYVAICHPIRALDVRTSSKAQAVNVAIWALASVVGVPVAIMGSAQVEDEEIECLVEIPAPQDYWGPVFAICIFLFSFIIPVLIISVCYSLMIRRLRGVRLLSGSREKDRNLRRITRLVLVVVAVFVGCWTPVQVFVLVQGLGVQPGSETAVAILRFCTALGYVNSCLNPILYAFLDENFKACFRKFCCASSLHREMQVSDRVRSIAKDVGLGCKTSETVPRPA

On to `CO[C@]12CC[C@@]3(C[C@@H]1C(C)(C)O)[C@H]1Cc4ccc(O)c5c4[C@@]3(CCN1CC1CC1)[C@H]2O5`, for which the “specific binding of the radioactively-labeled ligand” value is given as “no specific binding”.

Source of the values: US20010010919A1, “OPIOID ANTAGONISTS AND METHODS OF THEIR USE” (priority 1998, published 2001).
